In patent publication US20240383958A1, “APELIN RECEPTOR AGONISTS AND USES THEREOF” (VISTERRA, INC., priority 2023, published 2024):
Positions count from the first letter of the chain named. Names may count otherwise. Values belong to the molecule of their own block, whether it stands above or below them.

How the values were obtained:
apelin receptor = molecular target: T1, apelin receptor (Homo sapiens, UniProt P35414); conditions: human heart; cited from earlier work
T1 construct: host or cells: human heart tissue
T1 sequence (P35414 1-380): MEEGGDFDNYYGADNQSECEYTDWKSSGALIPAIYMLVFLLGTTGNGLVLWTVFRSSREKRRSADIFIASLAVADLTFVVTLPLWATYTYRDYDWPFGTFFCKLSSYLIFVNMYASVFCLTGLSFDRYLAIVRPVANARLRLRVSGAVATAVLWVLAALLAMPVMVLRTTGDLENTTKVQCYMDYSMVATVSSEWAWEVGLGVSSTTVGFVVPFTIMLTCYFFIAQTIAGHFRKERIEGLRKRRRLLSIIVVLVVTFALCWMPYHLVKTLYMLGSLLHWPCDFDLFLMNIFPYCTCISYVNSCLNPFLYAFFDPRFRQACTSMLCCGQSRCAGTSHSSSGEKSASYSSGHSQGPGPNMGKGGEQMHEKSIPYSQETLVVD

apelin receptor (AGTRL1) = molecular target: T2, apelin receptor (AGTRL1) (Homo sapiens, UniProt P35414); assay: PathHunter beta-arrestin signaling assay; assay type: cell-based; conditions: PathHunter CHO-K1 AGTRL1 β-arrestin cells
T2 construct: host or cells: CHO-K1
T2 sequence (P35414 1-380): T1 sequence (P35414 1-380)
Protocol: In this example, commercially available HitHunter® cAMP assay was used to determine the effect of apelin receptor agonists on Gai signaling, measured cAMP depletion. Next, commercially available PathHunter® beta-arrestin assay was used to determine the effect of apelin receptor agonists on beta-arrestin signaling. Additionally, the effect of apelin receptor agonists on ERK signaling was determined.
In a 384-well plate (Corning #3897), PathHunter® CHO-K1 AGTRL1 β-arrestin cells (Eurofins DiscoverX #93-0250C2) were seeded at 5×10^3 cells/well in 20 μL AssayComplete Cell Plating 2 Reagent (Eurofins DiscoverX #93-0563R2A) and were incubated overnight at 37° C. with 5% CO2. On the following day, the plate was treated with 5 μL/well of compounds serially diluted in 1×PBS+0.1% BSA buffer and was incubated for 1.5 hr at 37° C. with 5% CO2. Then, 12.5 μL/well of detection solution was added, prepared as instructed in the PathHunter® Detection Kit (Eurofins DiscoverX #93-0001), the plate was wrapped in foil, and was incubated at room temperature. Plates were read after 1-2 hr of incubation on a standard luminescence plate reader. In this assay, low levels of β-arrestin in cells were directly related to low luminescence signal. Using Four Parameter Logistic Regression for curve fitting, the raw data file was processed into S-shaped dose-response curves from which values, such as the EC50, Hill Slope, and Emax, were quantified.

[1] = molecular target: T3, apelin receptor (AGTRL1) on CHO-K1 cells (UniProt P35414 1-380, limits assumed); assay: cell-based or functional assay
T3 sequence (looked up): T1 sequence (P35414 1-380)

Molecule: elabela-32
affinity for the apelin receptor (apelin receptor): subnanomolar affinity

Molecule: elabela-11
affinity for the apelin receptor (apelin receptor): affinity an order of magnitude lower than that of the other peptides

B5: APL-L: Leader-Fc-linker fusion of apelin analogue QRPRLQHKNPMAW (S6Q, G9N, P12A, F13W) (protein)
chain: MRAWIFFLLCLAGRALADKTHTSPPSPAPEAAGGPSVFLFPPKPKDTLMISRTPEVTCVVVDVSHEDPEVKFNWYVDGVEVHNAKTKPREEQYNSTYRVVSVLTVLHQDWLNGKEYKCKVSNKALPAPIEKTISKAKGQPREPQVYTLPPSREEMTKNQVNLTCLVKGFYPSDIAVEWESNGQPENNYKTTPPVLDSDGSFFLNSTLTVDKSRWQQGNVFSCSVMHEALHNHYTQKSLSLSPGKGGGGSGGGGSGGGGSQRPRLQHKNPMAW
beta-Arrestin EC50 (nM) Exp. 1 (apelin receptor (AGTRL1)): Weak | beta-Arrestin EC50 (nM) Exp. 2 (apelin receptor (AGTRL1)): Weak

B9: APL-K: Leader-Fc-linker fusion of apelin analogue QRPRLQHKNPMAF (S6Q, G9N, P12A) (protein)
chain: B5 chain with W272F
beta-Arrestin EC50 (nM) Exp. 1 (apelin receptor (AGTRL1)): Weak | beta-Arrestin EC50 (nM) Exp. 2 (apelin receptor (AGTRL1)): Weak

B10: APL-B (Fc fusion)
chain: DKTHTSPPSPAPEAAGGPSVFLFPPKPKDTLMISRTPEVTCVVVDVSHEDPEVKFNWYVDGVEVHNAKTKPREEQYNSTYRVVSVLTVLHQDWLNGKEYKCKVSNKALPAPIEKTISKAKGQPREPQVYTLPPSREEMTKNQVNLTCLVKGFYPSDIAVEWESNGQPENNYKTTPPVLDSDGSFFLNSTLTVDKSRWQQGNVFSCSVMHEALHNHYTQKSLSLSPGKGGGGSGGGGSGGGGSQRPRLSHKGPMVF
ERK EC50 [1]: 2.63 nM | beta-Arrestin EC50 (nM) Exp. 1 [1]: 337 nM | beta-Arrestin EC50 (nM) Exp. 2 [1]: 110 nM | cAMP EC50 (nM) Exp. 1 [1]: 3.66 nM | cAMP EC50 (nM) Exp. 2 [1]: 5.4 nM

B13: APL-E (Fc fusion)
chain: B10 chain with M253H, V254P
ERK EC50 [1]: 14.4 nM | cAMP EC50 (nM) Exp. 1 [1]: 54.6 nM | cAMP EC50 (nM) Exp. 2 [1]: 37.5 nM

B14: APL-F (Fc fusion)
chain: B10 chain with M253A, V254P, F255Y
ERK EC50 [1]: 1.95 nM | beta-Arrestin EC50 (nM) Exp. 1 [1]: 1430 nM | cAMP EC50 (nM) Exp. 1 [1]: 18.3 nM | cAMP EC50 (nM) Exp. 2 [1]: 13.6 nM

B17: APL-A (Fc fusion)
chain: B10 chain with V254P
ERK EC50 [1]: 1.97 nM | beta-Arrestin EC50 (nM) Exp. 1 [1]: 1010 nM | cAMP EC50 (nM) Exp. 1 [1]: 6.85 nM | cAMP EC50 (nM) Exp. 2 [1]: 2.2 nM

B18: APL-G (Fc fusion)
chain: B10 chain with V254A
ERK EC50 [1]: 0.64 nM | beta-Arrestin EC50 (nM) Exp. 1 [1]: 23.6 nM | beta-Arrestin EC50 (nM) Exp. 2 [1]: 44.5 nM | cAMP EC50 (nM) Exp. 1 [1]: 2.81 nM | cAMP EC50 (nM) Exp. 2 [1]: 1.2 nM

B19: APL-M (Fc fusion)
chain: B10 chain with K250W, V254A, F255W
cAMP EC50 (nM) Exp. 1 [1]: 8.3 nM | cAMP EC50 (nM) Exp. 2 [1]: 8.3 nM

Second part, the molecule after the results:

beta-Arrestin EC50 (nM) Exp. 1 (apelin receptor (AGTRL1)): Weak | beta-Arrestin EC50 (nM) Exp. 2 (apelin receptor (AGTRL1)): Weak
B1: APL-C: Fc-linker fusion of apelin analogue QRPRLSHWGPMPF (K8W) (protein)
chain: B5 chain with Q265S, K267W, N268G, A271P, W272F

beta-Arrestin EC50 (nM) Exp. 2 (apelin receptor (AGTRL1)): Weak
B2: APL-F: Fc-linker fusion of apelin analogue QRPRLSHKGPAPY (M11A, F13Y) (protein)
chain: B5 chain with Q265S, N268G, M270A, A271P, W272Y

beta-Arrestin EC50 (nM) Exp. 2 (apelin receptor (AGTRL1)): Weak
B3: APL-D: Fc-linker fusion of apelin analogue ERPRLSHKGPMPF (Q1E) (protein)
chain: B5 chain with Q260E, Q265S, N268G, A271P, W272F

beta-Arrestin EC50 (nM) Exp. 1 (apelin receptor (AGTRL1)): Weak | beta-Arrestin EC50 (nM) Exp. 2 (apelin receptor (AGTRL1)): Weak
B4: APL-I: Leader-Fc-linker fusion of apelin analogue QRPRLSHKGPAAW (M11A, P12A, F13W) (protein)
chain: B5 chain with Q265S, N268G, M270A

beta-Arrestin EC50 (nM) Exp. 1 (apelin receptor (AGTRL1)): Weak | beta-Arrestin EC50 (nM) Exp. 2 (apelin receptor (AGTRL1)): Weak
B6: APL-E: Fc-linker fusion of apelin analogue QRPRLSHKGPHPF (M11H) (protein)
chain: B5 chain with Q265S, N268G, M270H, A271P, W272F

beta-Arrestin EC50 (nM) Exp. 1 (apelin receptor (AGTRL1)): Weak | beta-Arrestin EC50 (nM) Exp. 2 (apelin receptor (AGTRL1)): Weak
B7: APL-M: Leader-Fc-linker fusion of apelin analogue QRPRLSHWGPMAW (K8W, P12A, F13W) (protein)
chain: B5 chain with Q265S, K267W, N268G

beta-Arrestin EC50 (nM) Exp. 2 (apelin receptor (AGTRL1)): Weak
B8: APL-A: Monovalent IgG1 Fc fused via GGGGSGGGGSGGGGS linker to wild-type apelin-13 QRPRLSHKGPMPF (protein)
chain: B5 chain with Q265S, N268G, A271P, W272F

cAMP EC50 (nM) Exp. 1 [1]: 73.4 nM | cAMP EC50 (nM) Exp. 2 [1]: 73.4 nM
B11: APL-L (Fc fusion)
chain: B10 chain with S248Q, G251N, V254A, F255W

ERK EC50 [1]: 0.1 nM | beta-Arrestin EC50 (nM) Exp. 1 [1]: 181 nM | cAMP EC50 (nM) Exp. 1 [1]: 3.45 nM | cAMP EC50 (nM) Exp. 2 [1]: 11.1 nM
B12: APL-D (Fc fusion)
chain: B10 chain with Q243E, V254P

beta-Arrestin EC50 (nM) Exp. 1 [1]: 172 nM | beta-Arrestin EC50 (nM) Exp. 2 [1]: 172 nM | cAMP EC50 (nM) Exp. 1 [1]: 6.54 nM | cAMP EC50 (nM) Exp. 2 [1]: 6.5 nM
B15: APL-H (Fc fusion)
chain: B10 chain with V254H, F255W

cAMP EC50 (nM) Exp. 1 [1]: 14.2 nM | cAMP EC50 (nM) Exp. 2 [1]: 14.2 nM
B16: APL-K (Fc fusion)
chain: B10 chain with S248Q, G251N, V254A

beta-Arrestin EC50 (nM) Exp. 1 [1]: 370 nM | beta-Arrestin EC50 (nM) Exp. 2 [1]: 373 nM | cAMP EC50 (nM) Exp. 2 [1]: 3.8 nM
B20: APL-J (Fc fusion)
chain: B10 chain with M253A, V254A, F255Y

ERK EC50 [1]: 0.68 nM | cAMP EC50 (nM) Exp. 1 [1]: 50.4 nM | cAMP EC50 (nM) Exp. 2 [1]: 24.6 nM
B21: APL-C (Fc fusion)
chain: B10 chain with K250W, V254P

cAMP EC50 (nM) Exp. 1 [1]: 18 nM | cAMP EC50 (nM) Exp. 2 [1]: 18 nM
B22: APL-I (Fc fusion)
chain: B10 chain with M253A, V254A, F255W
